Measured values reported in patent US11723891B2, “Drug combinations for use in the treatment of RAS-mutant cancer” (UMC Utrecht Holding B.V., priority 2018, dated 2023).

Columns and labels:
[1] = system: p9T colorectal cancer organoids having a mutant KRAS; assay: Validation of synthetic lethality in patient-derived organoid p9T; type: cell-based, human; conditions: organoid printed as p19T
Protocol: (§1) Tumor organoids from colorectal cancer containing a Kras12D oncogenic mutation were treated for three days, with different concentrations of one of a 420 anti-cancer compound library (SellectChem), in the presence and absence of a combination of 1 μM selumetinib and 1 μM afatinib to inhibit MEK, EGFR and ERBB2. The induction of apoptosis was measured by semi-automated imaging.

[2] = system: p6T colorectal cancer organoids having a mutant KRAS; assay: Validation of synthetic lethality in patient-derived organoid p6T; type: cell-based, human
Protocol: as §1

SMILES	synergy with afatinib + selumetinib in p19T [1]	synergy with afatinib + selumetinib in p6T [2]
CCC1=C[C@@H]2CN(C1)Cc1c([nH]c3ccccc13)[C@@](C(=O)OC)(c1cc3c(cc1OC)N(C)[C@H]1[C@@](O)(C(=O)OC)[C@H](OC(C)=O)[C@]4(CC)C=CCN5CC[C@]31[C@@H]54)C2 [Vinorelbine]	very synergistic	–
CC(=O)O[C@@]12CO[C@@H]1C[C@H](O)[C@@]1(C)C(=O)[C@H](O)C3=C(C)[C@@H](OC(=O)[C@H](O)[C@@H](NC(=O)OC(C)(C)C)c4ccccc4)C[C@@](O)([C@@H](OC(=O)c4ccccc4)[C@H]21)C3(C)C [Docetaxel]	–	very synergistic
